Test system: N87 cells
Assay: Antibody internalisation by flow cytometry
Format: cell-based
Details: 0 min to 4.5 hour
Description: In further experiments, antibody internalisation was investigated by flow cytometry.
N87 cells were seeded in wells of 96-well tissue culture plates at a density of 50,000 cells/well, and allowed to adhere overnight (37° C., 5% CO2). 10D1F.FcA or trastuzumab were mixed with labelling reagent, and the labelled complexes were added to cells. Samples were harvested at 0 min, 10 min, 30 min, 1 hour, 2 hour and 4.5 hour time points, by aspiration of cell culture medium, washing with PBS and treatment with accutase. Accutase activity was neutralised, and cells were resuspended in FACs buffer and analysed by flow cytometry.

## trastuzumab: anti-HER2 antibody [reference compound]
  internalisation by flow cytometry: substantial internalisation
